Results on 3 molecules are retold here after PMC4869865 (Structure (London, England : 1993), 2010).

First the molecules themselves.
B1: τ subunit (DnaX) of the E. coli clamp loader (natural protein, UniProt P06710 1-643, looked up)
chain: MSYQVLARKWRPQTFADVVGQEHVLTALANGLSLGRIHHAYLFSGTRGVGKTSIARLLAKGLNCETGITATPCGVCDNCREIEQGRFVDLIEIDAASRTKVEDTRDLLDNVQYAPARGRFKVYLIDEVHMLSRHSFNALLKTLEEPPEHVKFLLATTDPQKLPVTILSRCLQFHLKALDVEQIRHQLEHILNEEHIAHEPRALQLLARAAEGSLRDALSLTDQAIASGDGQVSTQAVSAMLGTLDDDQALSLVEAMVEANGERVMALINEAAARGIEWEALLVEMLGLLHRIAMVQLSPAALGNDMAAIELRMRELARTIPPTDIQLYYQTLLIGRKELPYAPDRRMGVEMTLLRALAFHPRMPLPEPEVPRQSFAPVAPTAVMTPTQVPPQPQSAPQQAPTVPLPETTSQVLAARQQLQRVQGATKAKKSEPAAATRARPVNNAALERLASVTDRVQARPVPSALEKAPAKKEAYRWKATTPVMQQKEVVATPKALKKALEHEKTPELAAKLAAEAIERDPWAAQVSQLSLPKLVEQVALNAWKEESDNAVCLHLRSSQRHLNNRGAQQKLAEALSMLKGSTVELTIVEDDNPAVRTPLEWRQAIYEEKLAQARESIIADNNIQTLRRFFDAELDEESIRPI

Where “and” joins values, the source holds several entries; their conditions need not be identical. Equal entries are not always repeated. Where two headings read alike, the source gives them in different places.

Assay in all cases: native MS
Data set [1] deals with the molecule itself.
Data set [2] concerns the molecule itself. This is another data set of the same source.
Data set [3] addresses T1, δ subunit of the E. coli clamp loader (E. coli, UniProt P28630 1-343).
T1 sequence (looked up): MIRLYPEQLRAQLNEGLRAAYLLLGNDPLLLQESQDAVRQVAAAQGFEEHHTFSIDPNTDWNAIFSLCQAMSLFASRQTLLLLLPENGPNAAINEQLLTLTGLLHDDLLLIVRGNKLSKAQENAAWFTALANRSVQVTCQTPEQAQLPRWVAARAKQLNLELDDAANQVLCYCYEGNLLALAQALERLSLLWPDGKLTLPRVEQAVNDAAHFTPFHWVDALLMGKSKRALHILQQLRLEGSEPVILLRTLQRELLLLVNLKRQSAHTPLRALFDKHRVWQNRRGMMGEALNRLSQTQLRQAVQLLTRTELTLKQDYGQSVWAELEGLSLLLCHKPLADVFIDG

In data set [4] the target is T2, γ subunit (DnaX) of the E. coli clamp loader (E. coli, UniProt P06710-2 1-431).
T2 sequence (looked up): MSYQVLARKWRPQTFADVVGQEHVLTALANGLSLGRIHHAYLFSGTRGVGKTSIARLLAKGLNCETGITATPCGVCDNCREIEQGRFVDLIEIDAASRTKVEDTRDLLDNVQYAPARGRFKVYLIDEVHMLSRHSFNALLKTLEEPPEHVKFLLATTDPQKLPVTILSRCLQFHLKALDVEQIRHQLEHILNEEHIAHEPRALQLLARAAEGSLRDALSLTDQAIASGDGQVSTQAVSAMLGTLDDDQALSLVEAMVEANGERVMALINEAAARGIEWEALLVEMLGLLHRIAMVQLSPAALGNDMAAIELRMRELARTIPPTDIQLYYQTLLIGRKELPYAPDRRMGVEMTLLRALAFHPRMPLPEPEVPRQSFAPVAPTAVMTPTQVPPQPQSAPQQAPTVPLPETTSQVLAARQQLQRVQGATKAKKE

The target of data set [5] is B1.

In general, stoichiometry N refers to a count of units in the complex or per binding partner. For the molecule B1, the “stoichiometry N” value in data set [1] is 4 and 2; in data set [2], 3.

B2: δ′ subunit of the E. coli clamp loader (natural protein, UniProt P28631 1-334, looked up)
chain: MRWYPWLRPDFEKLVASYQAGRGHHALLIQALPGMGDDALIYALSRYLLCQQPQGHKSCGHCRGCQLMQAGTHPDYYTLAPEKGKNTLGVDAVREVTEKLNEHARLGGAKVVWVTDAALLTDAAANALLKTLEEPPAETWFFLATREPERLLATLRSRCRLHYLAPPPEQYAVTWLSREVTMSQDALLAALRLSAGSPGAALALFQGDNWQARETLCQALAYSVPSGDWYSLLAALNHEQAPARLHWLATLLMDALKRHHGAAQVTNVDVPGLVAELANHLSPSRLQAILGDVCHIREQLMSVTGINRELLITDLLLRIEHYLQPGVVLPVPHL
For the molecule B2, in data set [3], the binding result is “binds”.

B3: ψχ heterodimer of the E. coli clamp loader (complex)
chain 1: MTSRRDWQLQQLGITQWSLRRPGALQGEIAIAIPAHVRLVMVANDLPALTDPLVSDVLRALTVSPDQVLQLTPEKIAMLPQGSHCNSWRLGTDEPLSLEGAQVASPALTDLRANPTARAALWQQICTYEHDFFPRND
chain 2: MKNATFYLLDNDTTVDGLSAVEQLVCEIAAERWRSGKRVLIACEDEKQAYRLDEALWARPAESFVPHNLAGEGPRGGAPVEIAWPQKRSSSRRDILISLRTSFADFATAFTEVVDFVPYEDSLKQLARERYKAYRVAGFNLNTATWK
For B3, the binding result in data set [4] and in data set [5] was “binds” in each case.
